# Apparent affinities of Ab-14 variants for a coronavirus HR2 peptide

Values reported by Li et al. 2023, doi:10.1038/s41467-023-39022-2 (FLAb copy).

All variants were tested on one target, the spike HR2 peptide PDVDLGDISGINAS (SARS-CoV-2).

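Phage display of a naive human antibody library on the peptide gave the parent. These sequences belong to a second round, designed from the earlier measurements on random variants of the parent. Several design methods are mixed in this list. In AlphaSeq, yeast of one mating type display the scFv and yeast of the other type display the target. Binding brings cells together so that they mate, and sequencing counts the barcode pairs among the diploids. The ratio of observed to expected reads was calibrated, replicate by replicate, on BCL2-family standards whose Kd was known from biolayer interferometry. Mating was done six times.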

Ab-14 is the parent antibody, in scFv form: VH, then the linker GGGGSGGGGSGGGGS, then VL. The light chain is unchanged in all variants.
VH: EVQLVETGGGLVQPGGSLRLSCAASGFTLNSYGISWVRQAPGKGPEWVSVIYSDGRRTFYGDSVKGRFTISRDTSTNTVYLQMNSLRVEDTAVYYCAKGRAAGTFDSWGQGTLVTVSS
VL: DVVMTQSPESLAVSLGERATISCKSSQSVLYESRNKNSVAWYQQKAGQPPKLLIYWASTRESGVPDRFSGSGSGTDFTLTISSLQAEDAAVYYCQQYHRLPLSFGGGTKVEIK

Variants are written as CDR1, CDR2 and CDR3 of the heavy chain (limits as in the source). Parent: GFTLNSYGIS, VIYSDGRRTFYGDSVK, GRAAGTFDS.
Variants here have more than six changes.
Each Kd is an estimate from the mating assay, the geometric mean of the replicates in which the pair was seen; lower is stronger.
"no signal" marks a missing value. The strain was present, yet no cells mated with the target were sequenced in any replicate, which points to weak or no binding.
Entries are sorted by rising average, undetected variants last.
The range of this assay differs from that of the first round, and the authors advise against merging the two.
The authors' rule: three or more of the six replicates give a measured affinity, fewer mean a poor binder.
Background: pairings of all heavy chain designs with three empty control strains gave a value in 1% of cases (median 120 nM, 5th percentile 7.0 nM). Values in that range, when seen in few replicates, are hard to tell from nonspecific mating. Also given: how often the same scFv was detected with the empty control strains.
Of ten entries with the parent sequence, four were seen in most replicates (averages 2.2 nM to 240 nM), three in one and three in none, so single entries are noisy.

Variant GFDLNEYGIS | VIYADGMRTAYTDDVK | GQNAGTFDV gave 140 pM (6 of 6 replicates; controls 0 of 18).
Variant GFDLNEYGIS | VIYADGQRTFYSDSVK | GQTAGTFDA gave 190 pM (6 of 6 replicates; controls 0 of 18).
Variant GFDLNEYGIS | VIYADGRRTFYSDSVK | GGNAGTFDV gave 210 pM (6 of 6 replicates; controls 0 of 18).
Variant GFDLNEYGIS | VIYADGMRTAYSDDVK | GNNAGTFDV gave 220 pM (6 of 6 replicates; controls 1 of 18).
Variant GFDLNEYGIS | VIYADGMRTVYADSVK | GEVAGTFDQ gave 230 pM (6 of 6 replicates; controls 1 of 18).
Variant GFDLNEYGIS | VIYADGRRTFYTDSVK | GALAGTFDQ gave 230 pM (6 of 6 replicates; controls 0 of 18).
Variant GFDLNEYGIS | VIYADGRRTFYADSVK | GKVAGTFDQ gave 230 pM (6 of 6 replicates; controls 1 of 18).
Variant GFDLNEYGIS | VIYADGMRTFYTDSVK | GETAGTFDV gave 260 pM (6 of 6 replicates; controls 0 of 18).
Variant GFDLNEYGIS | VIYADGRRTFYSDSVK | GNVAGTFDE gave 350 pM (6 of 6 replicates; controls 1 of 18).
Variant GFDLNEYGIS | VIYADGMRSYYADSVK | GNVAGTFDI gave 350 pM (6 of 6 replicates; controls 0 of 18).
Variant GFDLDEYGIS | VIYADGRRTFYADSVK | GTLAGTFDL gave 390 pM (6 of 6 replicates; controls 0 of 18).
Variant GFDLNEYGIS | VIYADGRRTAYIDSVK | GANAGTFDV gave 410 pM (6 of 6 replicates; controls 0 of 18).
Variant GFDLDEYGIS | VIYADGRRTFYIDSVK | GETAGTFDA gave 430 pM (6 of 6 replicates; controls 1 of 18).
Variant GFQLDEYGIS | VIYADGRRTAYADSVK | GEVAGTFDV gave 530 pM (6 of 6 replicates; controls 0 of 18).
Variant GFDLNEYGIS | VIYADGMRTAYSDSVK | GEVAGTFDI gave 740 pM (6 of 6 replicates; controls 0 of 18).
Variant GFDLNEYGIS | VIYADGMRTFYADSVK | GQAAGTFDI gave 780 pM (6 of 6 replicates; controls 0 of 18).
Variant GFDLNEYGIS | VIYADGRRTAYSDSVK | GEIGGTFDS gave 790 pM (6 of 6 replicates; controls 0 of 18).
Variant GFDLNEYGIS | VIYADGSRKAYADDVK | GENAGTFDV gave 810 pM (6 of 6 replicates; controls 0 of 18).
Variant GFDLNEYGIS | VIYADGKRTAYADSVK | GNVAGTFDI gave 870 pM (6 of 6 replicates; controls 0 of 18).
Variant GFDLNEYGIS | VIYADGMRTAYSDDVK | GENAGTFDQ gave 1.5 nM (6 of 6 replicates; controls 0 of 18).
Variant GFDINEYGIS | VIYADGRRTAYADSVK | GETAGTFDS gave 2.0 nM (6 of 6 replicates; controls 0 of 18).
Variant GFDLNEYGIS | VIYADGVRTAYVDSVK | GEVAGTFDI gave 2.4 nM (6 of 6 replicates; controls 1 of 18).
Variant GEDLQEYGIS | VIYADGTRQAYSEKVK | GQHAGFLVK gave 3.2 nM (6 of 6 replicates; controls 1 of 18).
Variant GFNLSEYGIS | VIYADGMRSNYANSVK | GHHGNFFID gave 24 nM (1 of 6 replicates; controls 0 of 18).
Variant GFDLGEYGIS | VIYADGRRFSYKDAVK | GVVEGMLDI gave 40 nM (1 of 6 replicates; controls 0 of 18).
Variant GFDLGEYGIS | VIYADGMRSAYTDKVK | GAGANIVTH gave no signal (0 of 6 replicates; controls 0 of 18).
Variant GMDINEYGVS | VIYADGNRTMYQDNVK | GIEGGSFVL gave no signal (0 of 6 replicates; controls 0 of 18).
Variant SFTLNSYGIS | VIYADGRRTFYKDSMK | GRAAQTNKS gave no signal (0 of 6 replicates; controls 0 of 18).
Variant GFQLEDYGIS | VIYADGRRTAYAADVK | GQNNVVVGG gave no signal (0 of 6 replicates; controls 1 of 18).
Variant GFDINEYGIS | VIYADGIRTAYVSKVK | GRDIINVLF gave no signal (0 of 6 replicates; controls 1 of 18).
Variant GFDINEYGIS | VIYADGSRAAYADRVK | GQWGCVIYV gave no signal (0 of 6 replicates; controls 0 of 18).
Variant GFNLDEYGIS | VIYADGVRKAYSSKVK | GKVWWFFLM gave no signal (0 of 6 replicates; controls 1 of 18).
Variant GFDLDEYGIS | VIYADGKRTRYANNVK | GGVGGIGLS gave no signal (0 of 6 replicates; controls 0 of 18).
Variant GFVLSEYGIS | VIYADGNRTFYAPNVK | GQFNVVLNV gave no signal (0 of 6 replicates; controls 0 of 18).
Variant GFNLDEYGIS | VIYADGNRVFYADTVK | GLLGIGYSV gave no signal (0 of 6 replicates; controls 1 of 18).